Where a name gives a salt, the structure may show the parent alone. Bounds are passed on as bounds.

Chains of the proteins cited; added tags and fusions are not shown.
UniProt Q9UBN7, whole entry: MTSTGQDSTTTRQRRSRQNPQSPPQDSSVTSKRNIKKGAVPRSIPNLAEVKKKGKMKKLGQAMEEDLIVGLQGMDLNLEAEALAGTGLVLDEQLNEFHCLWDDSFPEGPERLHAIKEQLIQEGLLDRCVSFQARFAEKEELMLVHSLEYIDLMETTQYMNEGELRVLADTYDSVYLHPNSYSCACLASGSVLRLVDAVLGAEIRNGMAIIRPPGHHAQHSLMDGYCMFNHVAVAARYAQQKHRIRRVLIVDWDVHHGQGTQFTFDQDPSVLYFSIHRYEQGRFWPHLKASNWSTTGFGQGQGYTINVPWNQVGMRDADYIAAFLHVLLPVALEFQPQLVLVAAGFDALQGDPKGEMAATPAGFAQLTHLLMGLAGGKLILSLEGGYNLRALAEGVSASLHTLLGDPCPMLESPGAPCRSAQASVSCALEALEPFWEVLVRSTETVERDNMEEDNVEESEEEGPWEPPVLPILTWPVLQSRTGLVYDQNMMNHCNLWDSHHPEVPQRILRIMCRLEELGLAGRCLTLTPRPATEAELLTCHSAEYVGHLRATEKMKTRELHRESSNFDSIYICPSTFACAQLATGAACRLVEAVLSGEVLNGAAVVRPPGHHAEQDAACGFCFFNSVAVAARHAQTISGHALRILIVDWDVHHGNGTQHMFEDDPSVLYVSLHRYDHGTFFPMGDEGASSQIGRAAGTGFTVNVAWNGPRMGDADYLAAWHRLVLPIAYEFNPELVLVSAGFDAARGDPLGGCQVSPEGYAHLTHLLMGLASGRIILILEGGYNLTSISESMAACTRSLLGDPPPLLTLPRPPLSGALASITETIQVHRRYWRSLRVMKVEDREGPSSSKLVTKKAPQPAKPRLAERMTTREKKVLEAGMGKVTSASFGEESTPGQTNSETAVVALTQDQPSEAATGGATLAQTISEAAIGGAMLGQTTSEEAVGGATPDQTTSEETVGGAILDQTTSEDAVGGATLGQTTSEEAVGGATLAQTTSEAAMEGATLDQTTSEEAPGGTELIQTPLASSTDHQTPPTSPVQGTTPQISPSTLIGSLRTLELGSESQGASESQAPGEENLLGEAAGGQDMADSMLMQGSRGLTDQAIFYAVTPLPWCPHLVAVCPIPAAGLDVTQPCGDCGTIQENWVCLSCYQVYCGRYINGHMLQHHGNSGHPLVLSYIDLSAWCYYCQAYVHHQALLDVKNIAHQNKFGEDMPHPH

The target in this experiment is Human HDAC6 (Homo sapiens (Human), UniProt Q9UBN7). Nature of the experiment: HDAC6 fluorogenic peptide deacetylation inhibition assay. In kind it is biochemical. As to conditions: ratio HDAC1 IC50/HDAC6 IC50.

Take `CC(C)N(Cc1ccc(C(=O)NO)cc1)C(C)C` [Compound 53, 4-((Diisopropylamino)methyl)-N-hydroxybenzamide]: the HDAC6 Selectivity (HDAC1/HDAC6) stood at 192.

Take `COC[C@@H]1CCCN1Cc1ccc(C(=O)NO)cc1` [Compound 59, (S)-N-Hydroxy-4-((2-(methoxymethyl)pyrrolidin-1-yl)methyl)benzamide.TFA]: under “tested form: TFA”, the HDAC6 Selectivity (HDAC1/HDAC6) was 186.

In the case of `COC[C@H]1CCCN1Cc1ccc(C(=O)NO)cc1` [Compound 61], the HDAC6 Selectivity (HDAC1/HDAC6) (tested form: TFA) is over 24.

For the origin of these results see patent US9249087B2, “HDAC inhibitors and therapeutic methods using the same” (THE BOARD OF TRUSTEES OF THE UNIVERSITY OF ILLINOIS, priority 2011, dated 2016).
